These are literature values, as cited in article PMC6800033 (Analytical biochemistry, 2019).

pKd: −log10 of the molar value.

This data set concerns the target TEAD. As to conditions: read-out: Kd by ITC; cited from earlier work.

With `CSCC[C@H](NC(=O)[C@@H](NC(=O)[C@H](C)NC(=O)[C@H](CC(N)=O)NC(=O)[C@H](Cc1ccccc1)NC(=O)[C@H](CC(C)C)NC(=O)[C@H](C)NC(=O)[C@H](CCC(=O)O)NC(=O)[C@H](CC(C)C)NC(=O)[C@H](CC(=O)O)NC(=O)[C@@H](NC(=O)[C@@H](N)CCC(=O)O)[C@@H](C)O)C(C)C)C(=O)N[C@@H](CC(N)=O)C(=O)N1CCC[C@H]1C(=O)N[C@@H](CCCCN)C(=O)N[C@H](C(=O)N[C@@H](C)C(=O)N[C@@H](CC(N)=O)C(=O)N[C@H](C(=O)N1CCC[C@H]1C(=O)N[C@@H](CCC(N)=O)C(=O)N[C@H](C(=O)N[C@H](C(=O)N1CCC[C@H]1C(=O)N[C@@H](CCSC)C(=O)N[C@@H](CCCNC(=N)N)C(=O)N[C@@H](CC(C)C)C(=O)N[C@@H](CCCNC(=N)N)C(=O)N[C@@H](CCCCN)C(=O)N[C@@H](CC(C)C)C(=O)N1CCC[C@H]1C(=O)N[C@@H](CC(=O)O)C(=O)N[C@@H](CO)C(=O)N[C@@H](Cc1ccccc1)C(=O)N[C@@H](Cc1ccccc1)C(=O)N[C@@H](CCCCN)C(=O)N1CCC[C@H]1C(=O)N1CCC[C@H]1C(=O)N[C@@H](CCC(=O)O)C(=O)O)C(C)C)[C@@H](C)O)C(C)C)[C@@H](C)O` [YAP^62–100], the pKd was 7.02.
